# Apparent affinities of Ab-14 variants for a coronavirus HR2 peptide

From the AlphaSeq antibody data of Engelhart et al. 2022 (doi:10.1038/s41597-022-01779-4), copy in the FLAb collection.

Antigen: PDVDLGDISGINAS, a 14-residue peptide of the SARS-CoV-2 spike HR2 region.

Ab-14 is the parent antibody, in scFv form: VH, then the linker GGGGSGGGGSGGGGS, then VL. The heavy chain is unchanged in all variants.
VH: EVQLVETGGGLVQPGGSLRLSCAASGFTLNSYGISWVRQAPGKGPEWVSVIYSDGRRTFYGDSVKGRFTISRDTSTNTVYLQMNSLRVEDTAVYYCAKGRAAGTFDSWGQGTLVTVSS
VL: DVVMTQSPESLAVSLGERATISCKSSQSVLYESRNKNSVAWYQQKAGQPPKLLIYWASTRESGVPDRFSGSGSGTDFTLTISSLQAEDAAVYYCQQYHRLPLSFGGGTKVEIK

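The parent was found by panning a naive human phage display library on the peptide. Variants in AAYL50 differ from the parent at up to three CDR positions; double and triple changes were sampled at random. The assay is AlphaSeq: two haploid yeast populations carry antibody and antigen on their surface. Binding brings cells together so that they mate, and sequencing counts the barcode pairs among the diploids. Read counts were normalised to the haploid input and turned into Kd by a linear fit to BCL2-family pairs of known affinity, for each replicate. The assay was run in three technical replicates.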

Variants are written as CDR1, CDR2 and CDR3 of the light chain (limits as in the source). Parent: KSSQSVLYESRNKNSVA, WASTRES, QQYHRLPLS. Numbers give log10(Kd / nM), so 0 is 1 nM and 3 is 1 µM. Smaller is tighter. A mean of the replicates is given; it leaves out those without a signal. An entry "no signal" has no value in the source: the pair was not observed among the diploids in any replicate. This suggests poor binding but is not conclusive. As a blank, each scFv also met three strains without target: over library AAYL50, 18% of these pairings were detected, typically at 4.19 and seldom below 2.99. For each scFv, signals with the empty controls are counted beside the result.

| # | CDR-L1 | CDR-L2 | CDR-L3 | log10 Kd (nM), mean | seen in | signal with controls |
|---|---|---|---|---|---|---|
| 1 | KSSQSVLYESRNRNSVA | WASTRES | QIYHRLPLD | 4.68 | 1 of 3 | 1 of 9 |
| 2 | KSSQSVNYASRAKNSVA | WASTRES | QQYHRLPLS | no signal | 0 of 3 | 0 of 9 |
| 3 | KSSQSVLYESRNKNSEA | WESTRES | QQYHYLPLS | no signal | 0 of 3 | 1 of 9 |
| 4 | RSSQSVLYESRNKNSVA | WASTRES | QPYHRLPLD | no signal | 0 of 3 | 2 of 9 |
| 5 | KESQSVLYESRNKNSVV | WASTRES | QQYHRLPLS | no signal | 0 of 3 | 0 of 9 |
| 6 | KSSQSTLYESRNKNSQA | WASTRER | QQYHRLPLS | 4.24 | 3 of 3 | 6 of 9 |
| 7 | KSSQSVLYESRIKNSAA | WAFTRES | QQYHRLPLS | 6.12 | 1 of 3 | 1 of 9 |
| 8 | KSSQSVLYESINKKSVA | WASTTES | QQYHRLPLS | no signal | 0 of 3 | 0 of 9 |
| 9 | KSSQSVLYGSRNKNSQA | WASTRES | QQYHRLPHS | 3.56 | 1 of 3 | 0 of 9 |
| 10 | KSSQSWLEESRNKNSVA | WASTRES | QQYHFLPLS | 1.08 | 3 of 3 | 0 of 9 |
| 11 | KSEQSVLYESRNKNSVA | WASTRES | QQYQRLPLW | 0.70 | 3 of 3 | 4 of 9 |
| 12 | KSSQSVLYESRNKNSVA | WTSTREV | QTYHRLPLS | 1.12 | 3 of 3 | 5 of 9 |
| 13 | KSSQSVLYYSRNKNSVA | WASTPES | QQYHYLPLS | 4.45 | 1 of 3 | 3 of 9 |
| 14 | KSSQSVLYHSRNKNSVA | WASTRET | QQYIRLPLS | 1.91 | 3 of 3 | 2 of 9 |
| 15 | KSSCSVLYESRNKNSVA | WASGRES | QQYHRLKLS | no signal | 0 of 3 | 0 of 9 |
| 16 | KSEQSVLYESRNYNSVY | WASTRES | QQYHRLPLS | no signal | 0 of 3 | 1 of 9 |
| 17 | KVSQSVLYESRNKESVA | WASTRES | QQYHRLCLS | 1.41 | 3 of 3 | 4 of 9 |
| 18 | KSPQSVLYESRNKTSVA | WASTRES | QQYHRLPCS | 2.62 | 3 of 3 | 2 of 9 |
| 19 | KSSQSVLYESRGKNSVA | WASTRES | QHYHRLPLS | 2.26 | 3 of 3 | 1 of 9 |
| 20 | KSSQSVLYESRNKNSVA | WALTREI | QQYHRLPLS | 2.59 | 3 of 3 | 0 of 9 |
| 21 | KASQSVLCESRNPNSVA | WASTRES | QQYHRLPLS | 3.23 | 3 of 3 | 2 of 9 |
| 22 | KSSQSVLYESRRKNSVA | WASTRES | IQYHRQPLS | no signal | 0 of 3 | 0 of 9 |
| 23 | KSLQSVLYESGNKNSVA | WASTRES | QQYHRLPYS | 2.47 | 3 of 3 | 1 of 9 |
| 24 | KSSQSVLYESRNKNSVG | WASTRES | QQYWRLPLS | no signal | 0 of 3 | 1 of 9 |
| 25 | KFSQSVLYESRNKNSVA | WASTREP | QQEHRLPLS | no signal | 0 of 3 | 0 of 9 |
| 26 | PSSQSVLYESRNKNSVV | WASTRES | QQYHRLPLS | no signal | 0 of 3 | 0 of 9 |
| 27 | KSSQSVLYESRAKNSVA | WASTRES | QQYQRSPLS | 0.88 | 3 of 3 | 0 of 9 |
| 28 | KSSQSYQYESRNKNSVA | WSSTRES | QQYHRLPLS | 2.10 | 3 of 3 | 4 of 9 |
| 29 | KSSQSYLYESRKKNSVA | WAVTRES | QQYHRLPLS | 2.98 | 3 of 3 | 0 of 9 |
| 30 | KSSQSVLYESRMKNSVA | WASTRES | QHYHRLPYS | 0.94 | 3 of 3 | 0 of 9 |
| 31 | KSSQSLLYESRNKNSVA | WASTREY | QQYVRLPLS | 0.35 | 3 of 3 | 8 of 9 |
| 32 | KSSQSVLYESRNKNSVA | WASFRES | QQYHRLPHS | no signal | 0 of 3 | 4 of 9 |
| 33 | KSFYSVLYESRNKNSVA | WASTRES | QQYKRLPLS | 1.77 | 3 of 3 | 0 of 9 |
| 34 | KSVQSVLYESRNKNSIA | WASTRES | QVYHRLPLS | 0.21 | 3 of 3 | 1 of 9 |
| 35 | KSSQSHLYESRNKNSVA | WASTREH | QQYHRLALS | 1.06 | 3 of 3 | 1 of 9 |
| 36 | KSSQSVLYESRNKNSFA | WASTRES | QQYHRYPLQ | no signal | 0 of 3 | 0 of 9 |
| 37 | FHSQSRLYESRNKNSVA | WASTRES | QQYHRLPLS | 2.71 | 1 of 3 | 0 of 9 |
| 38 | KSSQSVYYESRNKVSVA | WASTRES | QQYHGLPLS | no signal | 0 of 3 | 1 of 9 |
| 39 | KSSQDVLYESRNKNSVA | WASTRES | QKYHRQPLS | 4.26 | 2 of 3 | 1 of 9 |
| 40 | KSSQSVLYEMRNKNSVA | WASTRES | QQYHKLPLG | 2.64 | 3 of 3 | 2 of 9 |
| 41 | KSSQSVWYESRFKNAVA | WASTRES | QQYHRLPLS | no signal | 0 of 3 | 0 of 9 |
| 42 | KSSYSVLYESRNKNSVA | WASTRES | MQEHRLPLS | no signal | 0 of 3 | 0 of 9 |
| 43 | KFSQSVLYESRNENSVA | WASTRES | QQYHRLPLS | -0.19 | 3 of 3 | 3 of 9 |
| 44 | KSSQSVLYESRNKNGVA | WASTRES | QNYHRLPLS | 1.61 | 3 of 3 | 2 of 9 |
| 45 | CSSQSVLWESRNKNSVA | WASTRES | QAYHRLPLS | 3.86 | 1 of 3 | 1 of 9 |
| 46 | KSSGSVLYESRFKNSVA | WASTRES | QQYHRAPLS | 0.93 | 3 of 3 | 0 of 9 |
| 47 | KSHQSVLYESRNCNSVA | WASTRES | QQYHLLPLS | 1.29 | 3 of 3 | 0 of 9 |
| 48 | KSSQSVLYESRNKNSVA | WASTRES | QQYNTLPRS | 5.95 | 1 of 3 | 1 of 9 |
| 49 | KSSQSVLYESNNKNSQA | WASTRES | QRYHRLPLS | no signal | 0 of 3 | 0 of 9 |
| 50 | KSSQSVLVESRNKVSVA | WASTRES | QQYHRGPLS | no signal | 0 of 3 | 0 of 9 |
| 51 | KSSQSVLYESRNKNSVA | HWSTRES | QQYHRLPLM | 3.13 | 1 of 3 | 0 of 9 |
| 52 | KSSQSCLYESRMKNSVN | WASTRES | QQYHRLPLS | 3.78 | 3 of 3 | 2 of 9 |
| 53 | KSSQSVLYESRNKNSVA | QAGTRES | QQEHRLPLS | 0.72 | 3 of 3 | 1 of 9 |
| 54 | KSSQSCLYESRNENSHA | WASTRES | QQYHRLPLS | no signal | 0 of 3 | 1 of 9 |
| 55 | KSSQSVLYESRNKNSVA | WASTRRS | QQPHRLPLV | 4.78 | 2 of 3 | 2 of 9 |
| 56 | KSSQSVLYEIRNKNMVA | WASTRES | QLYHRLPLS | no signal | 0 of 3 | 1 of 9 |
| 57 | KSSQSVLYESRNKNSVA | WAVTRES | QQYHRLELE | no signal | 0 of 3 | 2 of 9 |
| 58 | KSSQSFLYESRNKHSVA | WASTRES | QQMHRLPLS | 4.81 | 2 of 3 | 4 of 9 |
| 59 | KSSQSVLMESRNKNSVA | WASHRES | QQYHMLPLS | 0.96 | 3 of 3 | 4 of 9 |
| 60 | KSSQTVLYESRNKNSVA | WASTRES | QLYHRLPWS | no signal | 0 of 3 | 0 of 9 |
| 61 | KSSQSVLYESRNKPSVA | WASKPES | QQYHRLPLS | 4.18 | 1 of 3 | 0 of 9 |
| 62 | KSSQSVLYESRNKLSLA | WASTRCS | QQYHRLPLS | 3.15 | 2 of 3 | 2 of 9 |
| 63 | KSSQSVLYESRNKNSVA | WASTRQS | QQYHRFHLS | 2.85 | 3 of 3 | 1 of 9 |

Picked from the list: the 8 lowest averages where every replicate gave a value.

{"CDR-L1": "KFSQSVLYESRNENSVA", "CDR-L2": "WASTRES", "CDR-L3": "QQYHRLPLS", "log10 Kd (nM), mean": "-0.19", "seen in": "3 of 3", "signal with controls": "3 of 9"}
{"CDR-L1": "KSVQSVLYESRNKNSIA", "CDR-L2": "WASTRES", "CDR-L3": "QVYHRLPLS", "log10 Kd (nM), mean": "0.21", "seen in": "3 of 3", "signal with controls": "1 of 9"}
{"CDR-L1": "KSSQSLLYESRNKNSVA", "CDR-L2": "WASTREY", "CDR-L3": "QQYVRLPLS", "log10 Kd (nM), mean": "0.35", "seen in": "3 of 3", "signal with controls": "8 of 9"}
{"CDR-L1": "KSEQSVLYESRNKNSVA", "CDR-L2": "WASTRES", "CDR-L3": "QQYQRLPLW", "log10 Kd (nM), mean": "0.70", "seen in": "3 of 3", "signal with controls": "4 of 9"}
{"CDR-L1": "KSSQSVLYESRNKNSVA", "CDR-L2": "QAGTRES", "CDR-L3": "QQEHRLPLS", "log10 Kd (nM), mean": "0.72", "seen in": "3 of 3", "signal with controls": "1 of 9"}
{"CDR-L1": "KSSQSVLYESRAKNSVA", "CDR-L2": "WASTRES", "CDR-L3": "QQYQRSPLS", "log10 Kd (nM), mean": "0.88", "seen in": "3 of 3", "signal with controls": "0 of 9"}
{"CDR-L1": "KSSGSVLYESRFKNSVA", "CDR-L2": "WASTRES", "CDR-L3": "QQYHRAPLS", "log10 Kd (nM), mean": "0.93", "seen in": "3 of 3", "signal with controls": "0 of 9"}
{"CDR-L1": "KSSQSVLYESRMKNSVA", "CDR-L2": "WASTRES", "CDR-L3": "QHYHRLPYS", "log10 Kd (nM), mean": "0.94", "seen in": "3 of 3", "signal with controls": "0 of 9"}

In this assay the parent's reference entry averaged 0.65; its copy inside this library read 1.68.